# Assay results taken from PubChem BioAssay AID1347404 (Pan Lab, Icahn School of Medicine at Mount Sinai, 2020).
# Amino acid sequences for entries named in this document (tags omitted).
# UniProt P62877, whole entry, looked up: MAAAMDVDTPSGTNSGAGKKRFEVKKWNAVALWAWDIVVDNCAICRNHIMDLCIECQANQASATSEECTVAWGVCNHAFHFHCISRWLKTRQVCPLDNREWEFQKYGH
# UniProt Q13616, whole entry, looked up: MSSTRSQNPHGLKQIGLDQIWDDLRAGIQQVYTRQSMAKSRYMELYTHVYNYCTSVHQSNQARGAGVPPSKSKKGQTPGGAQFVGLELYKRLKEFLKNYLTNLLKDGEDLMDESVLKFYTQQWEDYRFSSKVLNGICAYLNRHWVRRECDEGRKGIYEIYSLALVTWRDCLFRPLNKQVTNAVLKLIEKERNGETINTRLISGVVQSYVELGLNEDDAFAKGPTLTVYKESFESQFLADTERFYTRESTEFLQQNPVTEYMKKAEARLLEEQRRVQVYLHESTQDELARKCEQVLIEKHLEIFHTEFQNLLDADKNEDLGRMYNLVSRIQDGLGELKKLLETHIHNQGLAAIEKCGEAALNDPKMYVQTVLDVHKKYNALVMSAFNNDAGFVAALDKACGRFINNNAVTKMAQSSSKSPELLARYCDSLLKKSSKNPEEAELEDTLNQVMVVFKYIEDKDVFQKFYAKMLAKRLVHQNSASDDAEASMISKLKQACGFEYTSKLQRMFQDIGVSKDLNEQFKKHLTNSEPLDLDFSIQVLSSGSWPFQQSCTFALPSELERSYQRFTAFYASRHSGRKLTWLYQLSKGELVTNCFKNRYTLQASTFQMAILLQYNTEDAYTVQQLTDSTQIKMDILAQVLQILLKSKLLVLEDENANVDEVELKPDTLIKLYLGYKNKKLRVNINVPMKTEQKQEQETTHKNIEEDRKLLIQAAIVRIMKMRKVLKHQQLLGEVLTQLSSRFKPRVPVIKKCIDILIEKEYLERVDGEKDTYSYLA
# Only a part is listed here, and it is no random draw. Calls of active or inactive are those of the source. Rule as the data show it: active = inhibition above about 25%; inactive = the rest.
# Molecular target: E3 ubiquitin-protein ligase RBX1 (Homo sapiens) + Cullin-1 (Homo sapiens) (UniProt P62877+Q13616)
# Test: blocks human RBX1-Cullin-1 di-ubiquitin formation (AID 1347404)
# Conditions: in vitro K48 di-Ub FRET, acceptor:donor ratio, 45 min; at 10 µM; hits give high values
row,Compound,inhibition
1,O=[N+]([O-])c1cc2c(c([N+](=O)[O-])c1)-c1c(cc([N+](=O)[O-])cc1[N+](=O)[O-])C2=Cc1cccs1,inactive: -9.96%
2,Cc1oc2cc([N+](=O)[O-])c(O)c([N+](=O)[O-])c2c1[N+](=O)[O-],active: 85.2%
3,CN(c1c([N+](=O)[O-])cc([N+](=O)[O-])c(N)c1[N+](=O)[O-])[N+](=O)[O-],inactive: -0.662%
4,CC(=O)N1CN([N+](=O)[O-])CCN([N+](=O)[O-])C1,inactive: 5.35%
5,O=[N+]([O-])c1cc([N+](=O)[O-])c(-c2cnn(-c3ccccc3)c2)c([N+](=O)[O-])c1,inactive: 0.288%
6,CN1CCCCC1COC(=O)C1(O)c2ccccc2CCc2ccccc21 (stereo unspecified),inactive: 6.38%
7,C=CCN1CCN(CCOC(=O)C(O)(c2ccccc2)c2ccccc2)CC1,inactive: 17%
8,COc1ccc(OP(C)(=O)Nc2cccc(Br)c2)cc1 (stereo unspecified),inactive: -8.45%
9,O=[N+]([O-])C1([N+](=O)[O-])COCOC1,inactive: -6.15%
10,CCCCCOc1ccc(NP(C)(=O)Oc2ccc(Cl)cc2Cl)cc1 (stereo unspecified),inactive: -2.42%
11,CC(C)N1C(=O)CC2(CCN(CCOC(=O)C(O)(c3ccccc3)c3ccccc3)CC2)C1=O,inactive: 7.09%
12,CN(C)c1c([N+](=O)[O-])cc([N+](=O)[O-])c(N(C)[N+](=O)[O-])c1[N+](=O)[O-],inactive: -2.54%
13,CC(C)N1C(=O)CC2(CCN(CCOC(=O)C(O)(c3ccccc3)C3CCCCC3)CC2)C1=O (stereo unspecified),inactive: -7.5%
14,O=[N+]([O-])C1([N+](=O)[O-])CCCc2c1no[n+]2[O-],inactive: 4.52%
15,CN1CCCCC1COC(=O)C1(O)c2ccccc2CCc2ncccc21 (stereo unspecified),inactive: -3.3%
16,N1=Nc2nonc2N=Nc2nonc21,inactive: 3.96%
